{
  "source": "patent US20040116330A1",
  "about": "“Preventive/therapeutic method for cancer” (priority 2001, published 2004)",
  "tested_on": "HER2 high expression human breast cancer cell BT-474",
  "test": "Anti-tumor effect, combined use, BT-474 cancer-bearing nude mice",
  "format": "in vivo",
  "details": "BT-474 nude mice; compound B4 20 mg/kg/day orally 14 days; trastuzumab 10 mg/kg i.p. twice a week for 2 weeks; or both",
  "data": [
    {"substance": "trastuzumab: trastuzumab (Herceptin (trade mark); anti-HER2 antibody) [reference compound]", "values": [
      {"measurement": "growth rate (T/C (%))", "result": "−17", "unit": "%"}
    ]}
  ]
}
